Measurements as given in PubChem BioAssay AID1259344 (Tox21, 2017).
The list shows a part of the results, in another mix than the full data. Some results for these compounds are left out of this collection, so the calls shown say nothing about other tests. Records with an inconclusive call do not appear. Calls of active or inactive are those of the source. The call rests on the fitted dose curve; in most records, active means well fitted activation curve with a large enough effect; inconclusive means small, poorly fitted or top-dose-only effect; inactive means flat fitted curve, though single readings scatter.

test: qHTS assay to identify small molecule phospholipidosis (PLD) inducers; conditions: HepG2 phospholipidosis, LipidTOX Red imaging, 24 h; at 38.3 µM (top of the series)
Source text: National Center for Advancing Translational Sciences [NCATS]
Drug-induced Phospholipidosis (PLD) caused by cationic amphiphilic drugs is characterized by the appearance of unicentric or multicentric-lamellar bodies when viewed under electron microscope. Electron microscopy is the gold standard method for PLD detection, however, this method is time-consuming and labor intensive, making it unsuitable for evaluating a large set of compounds. A cell-based phospholipidosis assay has been developed using the LipidTox reagent in HepG2 cells and miniaturized into a 1536-well plate format. Drug induced phospholipid accumulation is stained with the LipidTox dyes in red color which then is determined using an automated high content screening system. […]
For fixations, 4 uL of 8% paraformaldehyde fixative solution containing 10 ug/mL Hoechst 33342 in Dulbecco's phosphate-buffered saline (DPBS) is added using a Kalypsys washer/dispenser (Kalypsys, San Diego, CA, USA). […] The fluorescence intensities (595 nm excitation, 615 nm emission for LipidTOX; 352 nm excitation, 461 nm emission for Hoechst 33342) are measured using an ImageXpress Micro Widefield High Content Screening System (Molecular Devices, Sunnyvale, CA, USA) with a 20x Plan Fluor objective. Images are acquired for one site in each well and analyzed with the MetaXpress software (Molecular Devices) using the Transfluor module. […]
On the % scale 0 is the no-effect control and ±100 the full control effect.

Row | SMILES | PLD induction
1 | CN1CCCC(OC(=O)C(O)(c2ccccc2)c2ccccc2)C1 (stereo unspecified) | inactive: 3.12%
